The source of these data is PubChem BioAssay AID624202 (National Center for Advancing Translational Sciences (NCATS), 2012).

Molecules are shown by their SMILES. The entries are a selection whose mix differs from that of the whole data set. Calls of active or inactive are those of the source. Calls come from the whole dose curve; as a rule, active = well fitted activation curve with a large enough effect; inconclusive = small, poorly fitted or top-dose-only effect; inactive = no such curve, though single readings can be large or run the other way.

The assay is described as follows: qHTS Assay to Identify Small Molecule Activators of BRCA1 Expression. Note: nearly all actives have a fitted effect of over 80% in size. The following applies: MCF7-BRCA1-FFLuc reporter, luminescence, 48 h, scaled: vehicle 0%, 10 µM genistein 100%; at 46.1 µM (top of the series). For orientation: qHTS replaces the single test concentration by a dilution series.
For `CN1CCCCC1COC(=O)C1(O)c2ccccc2CCc2ccccc21` (stereo unspecified), the activation is inactive: -27%.
In the case of `COc1ccccc1OP(C)(=O)Nc1c(C)cccc1C` (stereo unspecified), the activation was inactive: -29.4%.
As for `CCCOc1ccc(NP(C)(=O)Oc2ccc(Cl)cc2)cc1` (stereo unspecified), the activation is inactive: -8.84%.
In the case of `CP(=O)(Nc1ccc(SC(F)(F)F)cc1)Oc1ccccc1` (stereo unspecified), the activation is inactive: -31.6%.
`CC1=C2N=C(C=C3N=C(C(C)=C4[N-][C@@](C)([C@@H]5N=C1[C@](C)(CCC(=O)NC[C@@H](C)OP(=O)([O-])O[C@H]1[C@@H](O)[C@@H](n6cnc7cc(C)c(C)cc76)O[C@@H]1CO)[C@H]5CC(N)=O)[C@@](C)(CC(N)=O)[C@@H]4CCC(N)=O)[C@@](C)(CC(N)=O)[C@@H]3CCC(N)=O)C(C)(C)[C@@H]2CCC(N)=O.[C-]#N.[Co+3]`: the activation is inactive: 5.6%.
With `O=[N+]([O-])c1cc([N+](=O)[O-])c(Nc2nnnn2CCO)c([N+](=O)[O-])c1`, the activation was inactive: -19.8%.
As to `O=[N+]([O-])c1cc([N+](=O)[O-])c(-c2cnn(-c3ccccc3)c2)c([N+](=O)[O-])c1`, the activation is inactive: -31.9%.
For the compound `Cc1nc2ccc3ccccc3c2s1.O=[N+]([O-])c1cc([N+](=O)[O-])c(O)c([N+](=O)[O-])c1`, the activation was inactive: 0%.
For the compound `O=[N+]([O-])c1cc([N+](=O)[O-])c(-n2nnc3ccccc32)c([N+](=O)[O-])c1`, the activation is inactive: 19.5%.
`CN(Cc1cccnc1)C(=O)COc1ccc(Cl)c(Cl)c1.O=[N+]([O-])c1cc([N+](=O)[O-])c(O)c([N+](=O)[O-])c1`: the activation is inactive: 11%.
For the compound `Cc1cc(C)cc(OP(C)(=O)Nc2ccccn2)c1` (stereo unspecified), the activation is inactive: 1.37%.
`CP(=O)(Nc1cccc(Br)c1)Oc1ccccc1` (stereo unspecified): the activation was inactive: -12.9%.
For the compound `Cc1ccc(C)c(NP(C)(=O)Oc2ccccc2)c1` (stereo unspecified), the activation is inactive: -3.23%.
In the case of `COc1ccccc1OP(C)(=O)Nc1cccc(Br)c1` (stereo unspecified), the activation is inactive: 13.1%.
Then `Cc1cc(C)cc(OP(C)(=O)Nc2ccc(C)cc2C)c1` (stereo unspecified), with inactive: 9.25%; and `CCOC(=O)c1ccc(NP(C)(=O)Oc2cc(C)cc(C)c2)cc1` (stereo unspecified), with inactive: -74.3%; and `CC1=NCCc2c1[nH]c1ccccc21.O=[N+]([O-])c1cc([N+](=O)[O-])c(O)c([N+](=O)[O-])c1`, with inactive: 2.93%.
`CCOC(=O)c1ccc(NP(C)(=O)Oc2ccccc2)cc1` (stereo unspecified): the activation is inactive: -15.7%.
With `COc1ccccc1OP(C)(=O)Nc1ccc(C)cc1` (stereo unspecified), the activation was inactive: 0.227%.
Consider `Cc1ccc(NP(C)(=O)Oc2ccccc2)c(C)c1` (stereo unspecified), for which the activation was inactive: -7.2%.
To `COc1ccccc1OP(C)(=O)Nc1cc(Cl)ccc1C` (stereo unspecified) belongs inactive: -2.68%.
